Antibody variant affinities, Ab-14 light chain, assay B

Target: peptide PDVDLGDISGINAS, taken from heptad repeat 2 (HR2) of SARS-CoV-2 spike.

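Designed CDR sequences, proposed from the first random library and measured here. Their group label is 14L_GP_Gen (GP: Gaussian process model; Gen: genetic algorithm; a sequence that several methods proposed may carry one label only). The assay is AlphaSeq: two haploid yeast populations carry antibody and antigen on their surface. After mating in shaken culture at 30 °C for 16 h, diploids were selected and their barcode pairs sequenced. A regression on co-assayed BCL2-family reference pairs converts the normalised counts of each replicate to an apparent Kd. The assay was run in six technical replicates.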

Ab-14 is the parent antibody, in scFv form: VH, then the linker GGGGSGGGGSGGGGS, then VL. The heavy chain is unchanged in all variants.
VH: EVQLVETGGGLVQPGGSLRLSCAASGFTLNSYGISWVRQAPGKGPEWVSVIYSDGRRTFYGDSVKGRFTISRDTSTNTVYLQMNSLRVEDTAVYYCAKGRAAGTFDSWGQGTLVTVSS
VL: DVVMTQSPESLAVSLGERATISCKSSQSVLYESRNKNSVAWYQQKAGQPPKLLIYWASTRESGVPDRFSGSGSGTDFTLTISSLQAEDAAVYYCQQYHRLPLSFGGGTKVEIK

Variants are written as CDR1, CDR2 and CDR3 of the light chain (limits as in the source). Parent: KSSQSVLYESRNKNSVA, WASTRES, QQYHRLPLS. Scale: log10 of Kd in nM, estimated from mating counts; low values are strong binders. "n.d." means that the variant was in the library but no mating with the target was seen in that replicate; the authors take this as a sign of poor binding, and no number exists. The parent sequence was in this pool as ten entries: three were never detected, three once, and four in most replicates, with averages from 0.34 to 2.37. The range of this assay differs from that of the first round, and the authors advise against merging the two. As a blank, each scFv also met three strains without target: over all light chain designs, 4% of these pairings were detected, typically at 2.64 and seldom below 1.59. For each scFv, signals with the empty controls are counted beside the result, with their mean in brackets. The authors' rule: three or more of the six replicates give a measured affinity, fewer mean a poor binder.

| # | CDR-L1 | CDR-L2 | CDR-L3 | log10 Kd (nM) by replicate | empty controls |
|---|---|---|---|---|---|
| 1 | KLSQSVLYESRNSNSVA | NASYRES | QQYHRLPLS | 0.02 -0.13 -0.21 -0.19 -0.29 -0.03 | 3 of 18 (2.42) |
| 2 | KLSQSVLYEERNKNSVA | NASTRLS | QQYHRLPLS | -0.23 -0.22 -0.33 -0.43 -0.36 -0.22 | 2 of 18 (3.12) |
| 3 | KLSQSVPYESRNKNNVA | NASTRES | QQYHRLPLS | -0.21 -0.49 -0.57 -0.53 -0.36 -0.50 | 0 of 18 |
| 4 | KLSMSDLYESRNKNSVA | GASTRES | QQYHRLPLS | 0.00 -0.09 -0.21 -0.39 -0.35 -0.22 | 0 of 18 |
| 5 | KLSQSPLYESRNKNSVA | NASQRES | QQYHRLPLS | 0.14 0.54 -0.13 0.21 0.21 0.36 | 1 of 18 (2.49) |
| 6 | HLQQSVLYESRNKNSVA | NASTRES | QQYHRLPLS | -0.34 -0.42 -0.76 -1.01 -0.86 -0.63 | 0 of 18 |
| 7 | KISQSELYESRNKNSVA | GASTRES | QQYHRLPLS | -0.58 -0.18 -0.36 -0.53 -0.76 -0.29 | 0 of 18 |
| 8 | KLSQSVLYESRLKNSVA | NASTRES | QQYHRLPLS | -0.52 -0.59 -0.44 -0.80 -0.66 -0.45 | 0 of 18 |
| 9 | KLSQSELYESRNKNSVA | EASQRLS | QQYHRLPLS | 0.20 -0.01 -0.06 -0.04 0.13 0.11 | 0 of 18 |
| 10 | KLMQSWPYESRNKNSVA | NASTRES | QQYHRLPLS | 0.39 0.19 0.02 0.08 0.18 0.32 | 1 of 18 (3.64) |
| 11 | KMPQSVPYESRNKNSVA | NASTRES | QQYHRLPLS | 0.20 0.08 0.26 -0.01 0.00 0.33 | 0 of 18 |
| 12 | KFQQSVLYESRNKNSVA | NASTRES | QQYHRLPLS | -0.10 -0.17 -0.36 -0.32 -0.30 -0.11 | 0 of 18 |
| 13 | KLSQSDLYESRNKNSVA | EASTREM | QQYHRLPLS | 0.36 0.15 0.24 0.23 0.11 0.08 | 1 of 18 (2.95) |
| 14 | KLSQSVEYESRNKNSVA | NASTRCS | QQYHRLPLS | 0.28 -0.04 -0.27 -0.26 -0.09 0.07 | 2 of 18 (3.15) |
| 15 | KLQQSELYESRNKNSVA | EASTRMS | QQYHRLPLS | 0.03 -0.06 -0.25 -0.13 -0.12 0.04 | 0 of 18 |
| 16 | KVSQSYLYESRNKNSVA | NASTRES | QSYHRLPLS | -0.06 -0.06 -0.14 -0.24 -0.20 0.00 | 1 of 18 (2.65) |
| 17 | KLEQSVLYESRNKNSVA | NASTREQ | QQYHRLPLS | n.d. n.d. n.d. n.d. n.d. n.d. | 0 of 18 |
| 18 | KLYQSVLYESRNKNAVA | NASTRES | QQYHRLPLS | -0.24 -0.37 -0.31 -0.17 -0.21 -0.15 | 1 of 18 (2.12) |
| 19 | KLSQSELYEQRNKNSVA | NASTRES | QQYHRLPLS | -0.01 -0.11 -0.30 -0.05 0.03 0.04 | 0 of 18 |
| 20 | KLEQSEGYESRNKNSVA | NASTRES | QQYHRLPLS | -0.30 -0.21 -0.43 -0.72 -0.47 -0.38 | 2 of 18 (2.32) |
| 21 | KVSQSHLYESRNKNAVA | NASTRES | QQYHRLPLS | 0.04 -0.15 0.01 -0.06 -0.13 0.04 | 3 of 18 (2.21) |
| 22 | KMSQSVLYESRNKNSVA | EASTREQ | QQYHRLPLS | -0.01 -0.12 -0.04 -0.18 -0.39 -0.17 | 0 of 18 |
| 23 | KLPQSVLYESRNKNSVA | NASTRMV | QQYHRLPLS | 0.02 -0.04 -0.23 -0.12 -0.17 0.16 | 0 of 18 |
| 24 | KLKQSVLYESRNKNSVA | NASTRES | QQYHRLPLS | -0.01 -0.04 -0.21 -0.25 -0.22 -0.08 | 2 of 18 (2.70) |
| 25 | HLSQSVLYEMRNKNSVA | NASTRES | QQYHRLPLS | -0.08 -0.08 -0.34 -0.44 -0.34 -0.06 | 3 of 18 (2.61) |
| 26 | KLSQSVLYESRNKNSVA | EASQREV | QQYHRLPLS | 0.23 0.00 0.04 0.10 0.28 0.21 | 0 of 18 |
| 27 | KLTQSVLYESRNKNSVA | NASTRES | QQYHRLPLS | -0.34 -0.41 -0.44 -0.38 -0.42 -0.29 | 1 of 18 (3.72) |
| 28 | KFQQSWLYESRNKNSVA | NASQRES | QQYHRLPLS | 0.44 -0.05 -0.01 -0.13 -0.25 0.29 | 2 of 18 (2.19) |
| 29 | KFMQSQLYESRNKNSVA | NASQRES | QQYHRLPLS | 0.05 -0.12 -0.04 -0.05 -0.07 0.18 | 1 of 18 (3.25) |
| 30 | KLAQSVLYESRNKNSVA | GASTRES | QQYHRLPLS | 0.01 -0.35 -0.52 -0.35 -0.31 -0.13 | 0 of 18 |
| 31 | KLQQSWLYESRNKNSVA | NASQRED | QQYHRLPLS | 0.00 -0.16 -0.11 -0.32 -0.30 -0.04 | 0 of 18 |
| 32 | KLKQSELYESRNKNSVA | NASQRES | QQYHRLPLS | -0.39 -0.44 -0.38 -0.45 -0.29 0.00 | 0 of 18 |
| 33 | KVSQSNLYESRNKNSVA | QASTRES | QQYHRLPLS | -0.17 -0.26 -0.25 -0.40 -0.38 -0.08 | 1 of 18 (3.46) |
| 34 | KLSQSVLYEDRVKNSVA | NASQRES | QQYHRLPLS | 0.08 -0.09 0.10 -0.14 -0.15 0.04 | 3 of 18 (2.93) |
| 35 | KLPQSVEYESRNKNSVA | SASTRES | QQYHRLPLS | -0.10 -0.26 -0.28 -0.31 -0.26 -0.16 | 1 of 18 (4.71) |
| 36 | KLSQSDLYQSRNKNSVA | EASTRES | QQYHRLPLS | -0.35 -0.43 -0.76 -0.54 -0.70 -0.36 | 0 of 18 |
| 37 | KFEQSDLYESRNKNSVA | NASTRES | QQYHRLPLS | 0.06 -0.34 -0.44 -0.30 -0.49 -0.25 | 3 of 18 (2.08) |
| 38 | KLPQSQLYESRMKNSVA | NASQRES | QQYHRLPLS | 0.03 -0.18 -0.14 -0.14 -0.28 -0.09 | 2 of 18 (2.14) |
| 39 | KLSGSELYESRNKNSVA | NASTRES | QQYHRLPLS | -0.19 -0.06 -0.26 -0.44 0.12 -0.15 | 1 of 18 (2.66) |
| 40 | KVSQSELYESRNKNSVA | DASQRES | QQYHRLPLS | 0.57 0.28 0.23 0.13 0.38 0.82 | 0 of 18 |
| 41 | KLQQSHLYESRNKNSVA | NASQRES | QQYHRLPLS | 0.36 0.35 -0.12 -0.02 -0.07 0.10 | 0 of 18 |
| 42 | KVSQSDLYESRNKNSVA | QASTRES | QQYHRLPLS | -0.44 -0.48 -0.51 -0.73 -0.46 -0.53 | 0 of 18 |
| 43 | KSSQSELYESRNKNSVA | EASQRES | QQYHRLPLS | 0.12 0.12 0.03 -0.05 0.08 0.16 | 4 of 18 (2.77) |
| 44 | KFSQSELYESRNKNSVA | DASTRES | QQYHRLPLS | -0.36 -0.42 -0.39 -0.74 -0.73 -0.42 | 1 of 18 (1.49) |
| 45 | KLSQSDLYESRMKNSVA | NASTREQ | QQYHRLPLS | 0.14 -0.13 -0.26 -0.33 -0.02 0.11 | 2 of 18 (2.06) |
| 46 | KLSQSVLYESRNKNSVA | NASQRLQ | QQYHRLPLS | -0.27 -0.29 -0.31 -0.30 -0.37 -0.20 | 0 of 18 |
| 47 | KLPQSVLYESRNKNSVA | NASQRED | QQYHRLPLS | -0.18 -0.09 -0.28 -0.16 -0.27 -0.14 | 3 of 18 (2.52) |

Values reported by Li et al. 2023, doi:10.1038/s41467-023-39022-2 (FLAb copy).